Experimental data taken from paper PMC7341468 (BMC Pharmacology & Toxicology, 2020).

Key:
[1] = cited from earlier work
[2] = for Initial Cmin, median (interquartile range): serum, fourth day (72 h after first dose), FPIA; for Adjusted odds ratio (95%CI) for teicoplanin initial Cmin ≥20 μg/mL: multivariate analysis; for Crude odds ratio (95%CI) for teicoplanin initial Cmin ≥20 μg/mL: univariate analysis; for Teicoplanin max Cmin: conventional regimen
[3] = factor: Intensive care unit stay (> 3 days)
[4] = factor: Total parenteral nutrition
[5] = factor: eGFR≥60 mL/min/1.73 m^2

teicoplanin
Half-life [1]: 83 to 168 h
Repeated administration required to reach 93% of the concentration at steady state [1]: 14 days
Initial Cmin, median (interquartile range) ([2]; conventional high loading dose regimen (10 mg/kg, five doses in initial 3 days, adjusted to eGFR), n = 363): 18.3 (15.1–22.8) μg/mL
Initial Cmin, median (interquartile range) ([2]; enhanced high loading dose regimen (12 mg/kg, five doses in initial 3 days, adjusted to eGFR), n = 149): 24.9 (20.8–28.3) μg/mL
Patients with Cmin ≥ 60 μg/mL ([2]; enhanced high loading dose regimen, 149 patients): no patient experienced a Cmin ≥ 60 μg/mL
Patients with initial Cmin ≥ 40 μg/mL ([2]; enhanced high loading dose regimen, n = 149, 5 patients): 5 (3.4%)
Patients with initial Cmin < 20 μg/mL ([2]; enhanced high loading dose regimen, n = 149, 32 patients): 32 (21.5%)
Patients with initial Cmin 20–40 μg/mL (target range) ([2]; enhanced high loading dose regimen, n = 149, 112 patients): 112 (75.2%)
Adjusted odds ratio (95%CI) for teicoplanin initial Cmin ≥20 μg/mL ([2]; factor: APACHE II score ≥ 15): 0.78 (0.44–1.35)
Crude odds ratio (95%CI) for teicoplanin initial Cmin ≥20 μg/mL ([2]; factor: APACHE II score ≥ 15): 0.56 (0.38–0.84)
Crude odds ratio (95%CI) for teicoplanin initial Cmin ≥20 μg/mL ([2]; factor: Age (> 65 years)): 0.88 (0.62–1.26)
Crude odds ratio (95%CI) for teicoplanin initial Cmin ≥20 μg/mL ([2]; factor: Anticancer therapy): 1.15 (0.63–2.10)
Adjusted odds ratio (95%CI) for teicoplanin initial Cmin ≥20 μg/mL ([2]; factor: Body mass index ≥25): 2.33 (1.24–4.38)
Crude odds ratio (95%CI) for teicoplanin initial Cmin ≥20 μg/mL ([2]; factor: Body mass index ≥25): 1.73 (1.04–2.87)
Crude odds ratio (95%CI) for teicoplanin initial Cmin ≥20 μg/mL ([2]; factor: Body mass index< 18.5): 0.79 (0.52–1.18)
Adjusted odds ratio (95%CI) for teicoplanin initial Cmin ≥20 μg/mL ([2]; factor: Chronic renal failure): 0.62 (0.38–1.03)
Crude odds ratio (95%CI) for teicoplanin initial Cmin ≥20 μg/mL ([2]; factor: Chronic renal failure): 0.55 (0.36–0.83)
Crude odds ratio (95%CI) for teicoplanin initial Cmin ≥20 μg/mL ([2]; factor: Chronic respiratory disease): 0.99 (0.46–2.15)
Crude odds ratio (95%CI) for teicoplanin initial Cmin ≥20 μg/mL ([2]; factor: Collagen disease): 0.80 (0.45–1.42)
Crude odds ratio (95%CI) for teicoplanin initial Cmin ≥20 μg/mL ([2]; factor: Complicated MRSA infections): 1.13 (0.73–1.75)
Crude odds ratio (95%CI) for teicoplanin initial Cmin ≥20 μg/mL ([2]; factor: Diabetes mellitus): 0.98 (0.65–1.49)
Adjusted odds ratio (95%CI) for teicoplanin initial Cmin ≥20 μg/mL ([2]; factor: Enhanced high loading dose regimen): 7.75 (4.62–12.99)
Crude odds ratio (95%CI) for teicoplanin initial Cmin ≥20 μg/mL ([2]; factor: Heart disease): 1.09 (0.76–1.55)
Crude odds ratio (95%CI) for teicoplanin initial Cmin ≥20 μg/mL ([2]; factor: Immunosuppressive therapy): 1.70 (0.77–3.76)
Crude odds ratio (95%CI) for teicoplanin initial Cmin ≥20 μg/mL ([2]; factor: Inflammatory bowel disease): 0.88 (0.56–1.39)
Adjusted odds ratio (95%CI) for teicoplanin initial Cmin ≥20 μg/mL [2, 3]: 0.32 (0.19–0.56)
Crude odds ratio (95%CI) for teicoplanin initial Cmin ≥20 μg/mL [2, 3]: 0.41 (0.26–0.65)
Crude odds ratio (95%CI) for teicoplanin initial Cmin ≥20 μg/mL ([2]; factor: Liver cirrhosis/chronic hepatic dysfunction): 0.80 (0.48–1.31)
Crude odds ratio (95%CI) for teicoplanin initial Cmin ≥20 μg/mL ([2]; factor: MRSA infections): 0.98 (0.66–1.45)
Crude odds ratio (95%CI) for teicoplanin initial Cmin ≥20 μg/mL ([2]; factor: Malignant tumor): 0.79 (0.55–1.12)
Adjusted odds ratio (95%CI) for teicoplanin initial Cmin ≥20 μg/mL ([2]; factor: Serum albumin < 2.5 g/dL (median), hypoalbuminemia): 0.24 (0.15–0.37)
Crude odds ratio (95%CI) for teicoplanin initial Cmin ≥20 μg/mL ([2]; factor: Serum albumin < 2.5 g/dL (median)): 0.33 (0.23–0.47)
Crude odds ratio (95%CI) for teicoplanin initial Cmin ≥20 μg/mL ([2]; factor: Sex (male)): 0.85 (0.60–1.22)
Crude odds ratio (95%CI) for teicoplanin initial Cmin ≥20 μg/mL ([2]; factor: Steroid use): 0.88 (0.55–1.40)
Adjusted odds ratio (95%CI) for teicoplanin initial Cmin ≥20 μg/mL ([2]; factor: Surgery within 28 days): 0.47 (0.30–0.74)
Crude odds ratio (95%CI) for teicoplanin initial Cmin ≥20 μg/mL ([2]; factor: Surgery within 28 days): 0.59 (0.40–0.86)
Adjusted odds ratio (95%CI) for teicoplanin initial Cmin ≥20 μg/mL [2, 4]: 0.54 (0.32–0.92)
Crude odds ratio (95%CI) for teicoplanin initial Cmin ≥20 μg/mL [2, 4]: 0.70 (0.43–1.03)
Crude odds ratio (95%CI) for teicoplanin initial Cmin ≥20 μg/mL ([2]; factor: Transplantation): 2.79 (0.56–13.97)
Adjusted odds ratio (95%CI) for teicoplanin initial Cmin ≥20 μg/mL ([2]; factor: Ventilator use): 1.51 (0.68–3.36)
Crude odds ratio (95%CI) for teicoplanin initial Cmin ≥20 μg/mL ([2]; factor: Ventilator use): 0.58 (0.37–0.93)
Adjusted odds ratio (95%CI) for teicoplanin initial Cmin ≥20 μg/mL [2, 5]: 1.15 (0.68–1.95)
Crude odds ratio (95%CI) for teicoplanin initial Cmin ≥20 μg/mL [2, 5]: 1.43 (1.01–2.04)
Median Cmin ([2]; serum albumin 2.0–2.5 g/dL group): 18200 ng/mL
Median Cmin ([2]; serum albumin 2.5–3.0 g/dL group): 21600 ng/mL
Median Cmin ([2]; serum albumin 3.0–3.5 g/dL group): 22000 ng/mL
Median Cmin ([2]; serum albumin < 2.0 g/dL group): 16200 ng/mL
Median Cmin ([2]; serum albumin ≥3.5 g/dL group): 25700 ng/mL
Teicoplanin max Cmin ([2]; single patient No 1, total dose initial 3 days 31.2 mg/kg, eGFR 38, serum albumin 2.4 g/dL): 23700 ng/mL
Teicoplanin max Cmin ([2]; single patient No 2, total dose initial 3 days 44.4 mg/kg, eGFR 56, serum albumin […]): 11000 ng/mL
Teicoplanin max Cmin ([2]; single patient No 3, total dose initial 3 days 34.5 mg/kg, eGFR 20, serum albumin […]): 20000 ng/mL
Teicoplanin max Cmin ([2]; single patient No 4, total dose initial 3 days 38.8 mg/kg, eGFR 43, serum albumin 2.6 g/dL): 26600 ng/mL
Teicoplanin max Cmin ([2]; single patient No 5, total dose initial 3 days 33.8 mg/kg, eGFR 23, serum albumin 2.8 g/dL): 11000 ng/mL
Patients with teicoplanin initial Cmin ≥20 μg/mL ([2]; with factor: APACHE II score ≥ 15, 54/130 patients): 54/130 (41.5%)

Where two headings read alike, the source gives them in different places.
